# Reference: PubChem BioAssay (NCI)
#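 Five compound concentrations were applied to cells in 96-well plates for 48 hours; endpoints were derived by simple linear interpolation of the resulting dose-response curve. Here, GI50 denotes the concentration required for 50% inhibition of growth. TGI marks complete inhibition of growth.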
# Key:
# Assay in all cases: NCI tumour cell line growth inhibition, 48 h
# [1] = test system: DU-145 prostate
# [2] = test system: NCI-H522 lung
# [3] = test system: NCI/ADR-RES ovarian
# [4] = test system: MDA-N
# [5] = test system: HL-60(TB) leukemia
# [6] = test system: IGROV1 ovarian
# [7] = test system: HT29 colon
# [8] = test system: SNB-19 CNS
# [9] = test system: CCRF-CEM leukemia
# [10] = test system: T-47D breast
# [11] = test system: TK-10 renal
# [12] = test system: BT-549 breast
# [13] = test system: SK-MEL-28 melanoma
# [14] = test system: NCI-H322M lung
# [15] = test system: HOP-62 NSCLC
# [16] = test system: SR leukemia
# [17] = test system: CAKI-1 renal
# [18] = test system: RPMI-8226 leukemia
# [19] = test system: UACC-257 melanoma
# [20] = test system: HCT-15 colon
# [21] = test system: OVCAR-5 ovarian
# [22] = test system: OVCAR-3 ovarian
# [23] = test system: SF-268 CNS
# [24] = test system: EKVX NSCLC
# [25] = test system: HCT-116 colon
# [26] = test system: MCF7 breast
# [27] = test system: M14 melanoma
# [28] = test system: SF-539 CNS
# [29] = test system: SW-620 colon
# [30] = test system: OVCAR-8 ovarian
# [31] = test system: UO-31 renal
# [32] = test system: MOLT-4 leukemia
# [33] = test system: SN12C renal
# [34] = test system: A498 renal
# [35] = test system: SK-OV-3 ovarian
# [36] = test system: SK-MEL-2 melanoma
# [37] = test system: ACHN renal
# [38] = test system: COLO 205 colon
# [39] = test system: HS 578T breast
# [40] = test system: SK-MEL-5 melanoma
# [41] = test system: MDA-MB-435
# [42] = test system: OVCAR-4 ovarian
# [43] = test system: HOP-92 NSCLC
# [44] = test system: PC-3 prostate
# [45] = test system: NCI-H460 lung
# [46] = test system: RXF 393 renal
# [47] = test system: K-562 leukemia
# [48] = test system: LOX IMVI melanoma
# [49] = test system: NCI-H23 lung
# [50] = test system: UACC-62 melanoma
# [51] = test system: SNB-75 CNS
# [52] = test system: HCC-2998 colon
# [53] = test system: U251 CNS
# [54] = test system: SF-295 CNS
# [55] = test system: MALME-3M melanoma
# [56] = test system: A549 NSCLC
# [57] = test system: MDA-MB-231 breast
# [58] = test system: KM12 colon
# [59] = test system: NCI-H226 lung
# [60] = test system: 786-0 renal
compound,measurement,setting,value
Nc1cc([As](=O)(O)O)ccc1O,GI50,[1],> 100 µM
same,TGI,[1],> 100 µM
same,GI50,[2],> 100 µM
same,TGI,[2],> 100 µM
same,GI50,[3],> 100 µM
same,TGI,[3],> 100 µM
same,GI50,[4],> 100 µM
same,TGI,[4],> 100 µM
same,GI50,[5],> 100 µM
same,TGI,[5],> 100 µM
same,GI50,[6],> 100 µM
same,TGI,[6],> 100 µM
same,GI50,[7],> 100 µM
same,TGI,[7],> 100 µM
same,GI50,[8],> 100 µM
same,TGI,[8],> 100 µM
same,GI50,[9],> 100 µM
same,TGI,[9],> 100 µM
same,GI50,[10],> 100 µM
same,TGI,[10],> 100 µM
same,GI50,[11],> 100 µM
same,TGI,[11],> 100 µM
same,GI50,[12],> 100 µM
same,TGI,[12],> 100 µM
same,GI50,[13],> 100 µM
same,TGI,[13],> 100 µM
same,GI50,[14],> 100 µM
same,TGI,[14],> 100 µM
same,GI50,[15],> 100 µM
same,TGI,[15],> 100 µM
same,GI50,[16],> 100 µM
same,TGI,[16],> 100 µM
same,GI50,[17],> 100 µM
same,TGI,[17],> 100 µM
same,GI50,[18],> 100 µM
same,TGI,[18],> 100 µM
same,GI50,[19],> 100 µM
same,TGI,[19],> 100 µM
same,GI50,[20],> 100 µM
same,TGI,[20],> 100 µM
same,GI50,[21],> 100 µM
same,TGI,[21],> 100 µM
same,GI50,[22],> 100 µM
same,TGI,[22],> 100 µM
same,GI50,[23],> 100 µM
same,TGI,[23],> 100 µM
same,GI50,[24],> 100 µM
same,TGI,[24],> 100 µM
same,GI50,[25],> 100 µM
same,TGI,[25],> 100 µM
same,GI50,[26],> 100 µM
same,TGI,[26],> 100 µM
same,GI50,[27],> 100 µM
same,TGI,[27],> 100 µM
same,GI50,[28],> 100 µM
same,TGI,[28],> 100 µM
same,GI50,[29],> 100 µM
same,TGI,[29],> 100 µM
same,GI50,[30],> 100 µM
same,TGI,[30],> 100 µM
same,GI50,[31],> 100 µM
same,TGI,[31],> 100 µM
same,GI50,[32],> 100 µM
same,TGI,[32],> 100 µM
same,GI50,[33],> 100 µM
same,TGI,[33],> 100 µM
same,GI50,[34],> 100 µM
same,TGI,[34],> 100 µM
same,GI50,[35],> 100 µM
same,TGI,[35],> 100 µM
same,GI50,[36],> 100 µM
same,TGI,[36],> 100 µM
same,GI50,[37],> 100 µM
same,TGI,[37],> 100 µM
same,GI50,[38],> 100 µM
same,TGI,[38],> 100 µM
same,GI50,[39],> 100 µM
same,TGI,[39],> 100 µM
same,GI50,[40],> 100 µM
same,TGI,[40],> 100 µM
same,GI50,[41],> 100 µM
same,TGI,[41],> 100 µM
same,GI50,[42],> 100 µM
same,TGI,[42],> 100 µM
same,GI50,[43],> 100 µM
same,TGI,[43],> 100 µM
same,GI50,[44],> 100 µM
same,TGI,[44],> 100 µM
same,GI50,[45],> 100 µM
same,TGI,[45],> 100 µM
same,GI50,[46],> 100 µM
same,TGI,[46],> 100 µM
same,GI50,[47],> 100 µM
same,TGI,[47],> 100 µM
same,GI50,[48],> 100 µM
same,TGI,[48],> 100 µM
same,GI50,[49],> 100 µM
same,TGI,[49],> 100 µM
same,GI50,[50],> 100 µM
same,TGI,[50],> 100 µM
same,GI50,[51],> 100 µM
same,TGI,[51],> 100 µM
same,GI50,[52],> 100 µM
same,TGI,[52],> 100 µM
same,GI50,[53],> 100 µM
same,TGI,[53],> 100 µM
same,GI50,[54],> 100 µM
same,TGI,[54],> 100 µM
same,GI50,[55],> 100 µM
same,TGI,[55],> 100 µM
same,GI50,[56],> 100 µM
same,TGI,[56],> 100 µM
same,GI50,[57],> 100 µM
same,TGI,[57],> 100 µM
same,GI50,[58],> 100 µM
same,TGI,[58],> 100 µM
same,GI50,[59],> 100 µM
same,TGI,[59],> 100 µM
same,GI50,[60],> 100 µM
same,TGI,[60],> 100 µM
